The text below walks through data of patent US6649631B1, “Compositions and methods for treating bone deficit conditions” (The Board of Regents of the University of Texas System, priority 1999, dated 2003).

For this assay, the system named is TMC-23 cells. The assay is described as follows: Chondrogenic activity: alkaline phosphatase (ALP) activity in TMC-23 cells. The format is cell-based, mouse. The protocol:
Compounds 59-008, 59-0102 and 50-0197 were assayed for effects on the differentiation of cartilage cells, as compared to the action of recombinant human BMP-2. Briefly, a mouse clonal chondrogenic cell line, TMC-23, was isolated and cloned from costal cartilage of transgenic mice containing the BMP-2 gene control region driving SV-40 large T-antigen, generated as described in Ghosh-Choudhury et al Endocrinology 137:331-39, 1996.
For measurement of alkaline phosphatase (ALP) activity, the technique of LF Bonewald et al. J. Biol Chem (1992) 267:8943-49, was employed. Briefly, TMC-23 cells were plated in 96 well microtiter plates in DMEM containing 10% FCS at 4×10^3 cells/well. Two days after plating, the cells were confluent and the medium was replaced with fresh medium containing 10% FCS and different concentrations of compounds or recombinant BMP-2. After an additional 2 or 5 days incubation, the plates were washed twice with PBS, and then lysing solution (0.05% Triton X-100) was added (100 μl/well). The cells were lysed by three freeze-thaw cycles of −70° C. (30 min), followed by 37° C. (30 min with shaking). Twenty microliters of cell lysates were assayed with 80 μl of 5 mM p-nitrophenol phosphate in 1.5 M 2-amino-2-methyl-propanol buffer, pH 10.3 (Sigma ALP kit, Sigma Chemical Co., St. Louis, Mo.) for 10 min at 37° C. The reaction was stopped by the addition of 100 μl of 0.5 M NaOH. The spectrophotometric absorbance at 405 nm was compared to that of p-nitrophenol standards to estimate ALP activity in the samples. The protein content of the cell lysates was determined by the Bio-Rad protein assay kit (Bio-Rad, Hercules, Calif.). Specific activity was calculated using these two parameters.

Turning to “Recombinant BMP2: recombinant human BMP-2, comparator for chondrogenic activity”, the “increase of ALP levels compared to the vehicle control” value was roughly 1.5 fold (10 ng/ml), roughly 4 fold (50 ng/ml) and “approximately 10 fold” (100 ng/ml).
